Experiment: Solubility enhancement with cyclodextrins (saturated PXD-101 samples; HP-β-CD phase solubility)
Type: physicochemical
Method: Saturated samples of PXD-101 were prepared in aqueous solutions of two natural cyclodextrins (α-CD and γ-CD) and hydroxypropyl derivatives of the α, β and γ cyclodextrins (HP-α-CD, HP-β-CD and HP-γ-CD). […] HP-β-CD offers the best solubility enhancement for PXD-101. […] The calculated saturated solubilities of the complexed HDACi were plotted against the concentration of cyclodextrin. […] This type of phase solubility diagram for cyclodextrins is referred to as an A-Type phase solubility plot. […] This deviation may be due to experimental error caused by the decision to use of mass, instead of volume, to dispense the more concentrated cyclodextrin samples due to their viscosity. Alternatively, it is possible that there is a slight deviation from the linear A-Type phase solubility behaviour.

- Solubility Enhancement (of PXD-101): 50
Substance: Hydroxypropyl-γ-cyclodextrin [HP-γ-CD]

From patent US8835501B2, “Pharmaceutical formulations of HDAC inhibitors” (TopoTarget UK Limited, priority 2005, dated 2014)
